Binding of CDR-mutated scFvs to a peptide of the spike HR2 region

From the AlphaSeq antibody data of Li et al. 2023 (doi:10.1038/s41467-023-39022-2), copy in the FLAb collection.

Target peptide (SARS-CoV-2 spike, HR2 region): PDVDLGDISGINAS

Ab-14 is the parent antibody, in scFv form: VH, then the linker GGGGSGGGGSGGGGS, then VL. The heavy chain is unchanged in all variants.
VH: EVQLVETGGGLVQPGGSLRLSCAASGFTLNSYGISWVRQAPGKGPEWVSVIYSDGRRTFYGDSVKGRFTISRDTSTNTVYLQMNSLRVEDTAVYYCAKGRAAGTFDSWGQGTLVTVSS
VL: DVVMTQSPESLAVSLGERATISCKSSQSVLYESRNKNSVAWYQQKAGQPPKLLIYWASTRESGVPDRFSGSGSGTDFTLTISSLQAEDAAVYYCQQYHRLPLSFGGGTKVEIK

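The starting antibody came from a phage panning campaign against this peptide. The variants were designed computationally from a first round of random CDR variants and then made and measured. Several design methods are mixed in this list. The scFvs were displayed on barcoded MATa yeast, the peptide on MATalpha yeast. Pairs that bind mate more often; barcode pairs of the diploids are counted by sequencing. The ratio of observed to expected reads was calibrated, replicate by replicate, on BCL2-family standards whose Kd was known from biolayer interferometry. Mating was done six times.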

Positions count from residue 1 of the parent VL; S25V puts V in place of S. Variants here have at most six changes. Affinities are written as log10 Kd with Kd in nM; a lower number is a better binder. "nd" means that the variant was in the library but no mating with the target was seen in that replicate; the authors take this as a sign of poor binding, and no number exists. A sequence measured in both rounds can read differently, since the two assays cover different ranges.

For S25V/N35M/S38A/W56N, the assay gave -0.18, -0.23, -0.38, -0.38, -0.28, -0.20 (controls 2 of 18). For S25L/V29T/E32D/H98K, the assay gave 0.30, 0.15, 0.19, 0.32, 0.34, 0.20 (controls 2 of 18). With S25L/L30D/S38A/W56E the result was 0.08, -0.24, -0.33, -0.22, -0.51, -0.10 (controls 0 of 18). Variant S28Q/R34E/N35S/W56H gave 0.87, 2.02, 1.82, 0.79, 1.17, 1.81 (controls 0 of 18). With S25M/S26Y/W56N/T59Q the result was 0.12, -0.16, -0.30, -0.33, -0.08, 0.01 (controls 1 of 18). Variant S25M/V29D/W56G showed 0.04, 0.17, -0.04, 0.01, -0.07, 0.35 (controls 3 of 18).

Variant S25L/N37M/W56G showed 0.09, -0.30, -0.01, -0.39, -0.41, 0.22 (controls 1 of 18). For V29M/W56N/T59Q, the assay gave 0.00, -0.19, -0.28, -0.38, -0.18, -0.08 (controls 2 of 18). For L30I/Y31N/R34F/K36T, the assay gave 2.34, 2.30, 1.77, 1.97, 1.68, 2.62 (controls 0 of 18). For Y31P/E32M/R34S/W56A/Q96F, the assay gave 0.69, 0.77, 0.97, 0.71, 1.02, 1.13 (controls 0 of 18). Variant Q27W/S28Q/S62L/H98A gave nd, 1.19, nd, nd, nd, nd (controls 0 of 18). Variant K24Y/Y31A/R34A/S38A/S62I gave nd, 1.04, nd, nd, nd, nd (controls 0 of 18).

Variant S25M/S26P/V29N/W56N/T59Q gave 0.50, 0.06, 0.64, 0.43, 0.03, 0.43 (controls 0 of 18). Variant Q27G/K36F/V39M/W56R gave 1.21, 0.77, 0.97, 1.00, 1.13, 1.07 (controls 2 of 18). With K24H/Q27P/W56N/S62R the result was 0.73, 0.36, 0.32, 0.49, 0.16, 0.56 (controls 1 of 18). Variant A57L gave nd, 2.66, nd, nd, nd, 2.92 (controls 2 of 18). Variant S26Q/R34M gave 1.76, 2.20, 1.72, 1.64, 1.42, 2.18 (controls 0 of 18). Variant S28Y/S33R/K36E showed 0.46, 0.06, -0.01, -0.22, -0.15, 0.42 (controls 3 of 18).

With K36M the result was 2.82, 1.44, nd, 2.68, 2.69, 1.50 (controls 1 of 18). For S25L/S38N/W56N/Q96D, the assay gave 0.26, -0.02, -0.11, -0.03, 0.01, 0.05 (controls 0 of 18). For V29K/K36H, the assay gave 2.14, 2.31, 2.34, 4.24, nd, nd (controls 0 of 18). Variant S25F/S26P/L30W/E32Q/W56D/H98E gave -0.39, -0.53, -0.46, -0.81, -0.54, -0.11 (controls 2 of 18). Variant K24H/S25V/Q27P/L30E/W56N showed 1.36, 1.79, 1.15, 0.91, 1.36, 2.03 (controls 0 of 18). For S25L/S33E/W56N/T59Q/S62Q, the assay gave 0.26, 0.36, 0.51, 0.42, 0.39, 0.51 (controls 0 of 18).

Variant S25L/V29W/W56E/Q96D showed -0.04, 0.16, -0.11, 0.21, -0.15, 0.01 (controls 2 of 18). For S25M/Y31D/H98R, the assay gave 1.43, 1.45, 1.22, 0.70, 0.87, 0.81 (controls 1 of 18). With Q27H/K36C the result was 2.44, 1.70, 3.65, 2.11, 2.91, 1.91 (controls 1 of 18). Variant S25L/V29E/K36A/S38N/W56N gave -0.30, -0.51, -0.58, -0.77, -0.67, -0.38 (controls 2 of 18). For S25M/S26M/V29E/W56N/T59Q, the assay gave 0.18, 0.03, 0.20, -0.13, 0.12, 0.21 (controls 0 of 18). Variant K24H/N35W showed nd, 2.14, nd, nd, nd, nd (controls 0 of 18).

Variant S25V/R34G/N35L/W56N showed 0.03, 0.01, 0.06, -0.15, -0.09, -0.01 (controls 2 of 18). Variant S25L/W56N/E61C/S62D gave 0.02, -0.24, -0.01, -0.31, -0.25, -0.28 (controls 1 of 18). With Q27K/R34E the result was 2.85, 2.10, nd, 2.19, 2.03, 2.03 (controls 1 of 18). With Y31M/W56M/S62E the result was 0.80, 0.66, 0.44, 0.75, 0.52, 0.94 (controls 1 of 18). Variant S25Q/R34V/W56D/S62V showed 0.58, 0.83, 0.64, 1.02, 0.70, 1.06 (controls 1 of 18). Variant K24Y/Q27I/V29Y/R34P/W56E gave 0.50, 0.72, 0.65, 0.61, 1.01, 0.88 (controls 0 of 18).

Variant S25V/N35M/W56E gave 0.79, 0.09, 0.41, -0.03, -0.13, 0.64 (controls 0 of 18). For S25L/V29M/L30G/W56E, the assay gave 0.04, 0.03, -0.17, -0.34, -0.13, -0.22 (controls 0 of 18). Variant S28E/L30Y/E32Q gave nd, nd, nd, nd, 1.58, nd (controls 0 of 18). For S25L/V29M/S38N/W56N/E61M, the assay gave -0.26, -0.58, -0.39, -0.59, -0.63, -0.44 (controls 2 of 18).

Top 4 of the variants detected in all replicates, tightest first:

changes,"log10 Kd, replicates",empty controls
S25L/V29E/K36A/S38N/W56N,"-0.30, -0.51, -0.58, -0.77, -0.67, -0.38",2/18
S25L/V29M/S38N/W56N/E61M,"-0.26, -0.58, -0.39, -0.59, -0.63, -0.44",2/18
S25F/S26P/L30W/E32Q/W56D/H98E,"-0.39, -0.53, -0.46, -0.81, -0.54, -0.11",2/18
S25V/N35M/S38A/W56N,"-0.18, -0.23, -0.38, -0.38, -0.28, -0.20",2/18

The authors' rule: three or more of the six replicates give a measured affinity, fewer mean a poor binder. Three control strains display no target. For all light chain designs, 4% of the pairings with them gave a signal, with a median of 2.64 and one signal in twenty below 1.59, so weak values seen in few replicates may be background. The control count says in how many pairings with the empty strains this scFv gave a signal.